In publication PMC4249368 (Antimicrobial Agents and Chemotherapy, 2014):

Key:
[1] = system: MSSA ATCC 25923; settings: Table S1, MHB without serum, Corning NonTC microtitre plates (CLS3370)
Protocol: MSSA ATCC 25923 was purchased from the American Type Culture Collection (Manassas, VA). Mueller-Hinton broth (MHB; Bacto Laboratories Pty. Ltd.) was used to grow MSSA for determination of in vitro antibacterial activity in the presence and absence of 50% human serum (Life Technologies Australia, Melbourne, Australia) and time-kill assays. Luria-Bertani (LB) medium (Difco) and MHB adjusted with Ca^2+ (25 mg/liter) and Mg^2+ (12.5 mg/liter) (CA-MHB) were used for bacterial growth in the membrane depolarization assay and TEM, respectively. The phospholipids used for SPR analysis, 1-palmitoyl-2-oleoyl-sn-glycero-3-phosphoglycerol (POPG), 1-palmitoyl-2-oleoyl-sn-glycero-3-phosphocholine (POPC), and 1-palmitoyl-2-oleoyl-sn-glycero-3-phosphoethanolamine (POPE), were purchased from Auspep Pty. Ltd. (Melbourne, Australia).
(§1) MICs against MSSA ATCC 25923 were measured by broth microdilution according to the Clinical and Laboratory Standards Institute (CLSI) M7-A7 methodology ([30]). Briefly, serial 2-fold dilutions of each antibiotic were added into Costar nontreated polystyrene 96-well plates, and each well was inoculated with 50 μl of MSSA in MHB to a final concentration of approximately 5 × 10^5 CFU/ml. […] The dilution representing the MIC and two of the more and less concentrated dilutions were plated out onto Trypticase soy agar plates and enumerated to determine viable CFU/ml ([31]).

[2] = system: MSSA ATCC 25923; settings: MBC higher than MIC
Protocol: as §1, with “([31]). […]” for “([31]).”
25923 in MHB media in the presence and absence of Human serum (10% and 50%) in
Corning NonTC microtitre plates (CLS3370)
a The MBCs were determined by plating out the clear wells onto an agar plate and were incubated at
37°C overnight. Each colony represents one viable bacterium. […]

[3] = rats, 20-mg/kg i.v., agar dilution method; cited from earlier work

## ramoplanin
[1]
  MIC, MHB: 2 µg/mL
[2]
  MBC relative to MIC: 2 fold
[3]
  C12: 2 µg/mL
